Source: US20150259721A1

Target: Her2 (UniProt P04626)
Test: cell-based or functional assay

## 4D5-AzAb (HC274: LC70)-AF (antibody)
  EC50 nM, concentration of the drug to kill 50% of the tumor cells in vitro, HCC1954 cells: 0.0306 nM
  EC50 nM, concentration of the drug to kill 50% of the tumor cells in vitro, SKOV3 cells: 0.108 nM
